According to paper PMC11904594 (Current Research in Microbial Sciences, 2025):

System: 11 bacterial strains (S. aureus, P. aeruginosa, A. baumannii, K. pneumoniae, E. coli)
Experiment: Antimicrobial activity screening, summary over groups of strains
Assay type: cell-based
Conditions: 50 µg/ml screen; all A. baumannii strains

With `CC[C@H](C)[C@H](NC(=O)[C@H](CCC(N)=O)NC(=O)[C@@H](NC(=O)[C@H](C)NC(=O)[C@H](CCC(N)=O)NC(=O)CNC(=O)[C@@H](NC(=O)[C@@H](NC(=O)[C@H](C)NC(=O)[C@@H](NC(=O)[C@H](C)N)C(C)C)C(C)C)C(C)C)[C@@H](C)O)C(=O)N[C@@H](C)C(=O)N[C@@H](CCCCN)C(=O)N[C@@H](CCCCN)C(=O)N[C@@H](CCCCN)C(=O)N[C@@H](CC(C)C)C(=O)N[C@@H](Cc1ccccc1)C(=O)N[C@@H](CCCCN)C(=O)N[C@@H](CCCCN)C(=O)N[C@H](C(=O)N[C@@H](CC(C)C)C(=O)N[C@@H](CCCCN)C(=O)N[C@@H](Cc1ccc(O)cc1)C(=O)N[C@@H](CC(C)C)C(=O)N[C@@H](CCCCN)C(=O)N[C@@H](CC(=O)O)C(=O)N[C@@H](CCC(=O)O)C(=O)N[C@@H](CC(C)C)C(=O)O)[C@@H](C)CC` [BP190] as the molecule, how does the “growth inhibition of A. baumannii strains” value read?
Its value is “up to 75%”.
